Test system: aortic atherosclerotic lesion
Settings: rabbit, in vivo

## fluorine-18 fluorodeoxyglucose [^18F-FDG]
  SUV Abdominal aorta: 0.88 ± 0.88
  SUV Bone marrow: 0.78 ± 0.24
  SUV Brain: 1.92 ± 0.55
  SUV Heart: 1.58 ± 0.33
  SUV IVC: 0.96 ± 0.37
  SUV Liver: 1.80 ± 0.50
  SUV Spleen: 0.97 ± 0.41
  SUV Thoracic aorta: 0.96 ± 0.94
  TBR of SUV Abdominal aorta/IVC: 0.93 ± 0.27
  TBR of SUV Abdominal aorta/brain: 0.46 ± 0.13
  TBR of SUV Abdominal aorta/heart: 0.53 ± 0.10
  TBR of SUV Thoracic aorta/IVC: 0.93 ± 0.16
  TBR of SUV Thoracic aorta/brain: 0.46 ± 0.09
  TBR of SUV Thoracic aorta/heart: 0.53 ± 0.10
  entry into the brain parenchyma through the blood-brain barrier: enters the brain parenchyma
  uptake in liver and bone marrow tissues in PET/CT image: increased
  usefulness in detecting atherosclerotic lesions in the brain tissue: not useful
